According to patent US11447533B2, “Antimicrobial and anticancer peptides and conjugates and compositions, methods, articles and kits relating thereto” (George Mason Research Foundation, Inc., priority 2018, dated 2022):

Legend:
[1] = system: E. coli ML35p outer membrane; experiment: NPN assay, outer membrane perturbation; assay type: cell-based, Escherichia coli; details: 25 μM peptide, 25 μM PMB = 100%
Procedure: Interactions with Bacterial Membranes. Interaction of the peptides with bacterial membranes in different phosphate buffers were evaluated using E. coli ML35p, constructed in our laboratory. At first, competent cells of E. coli ML35 were produced by conventional competent cell preparation method, then transformed with pBR322 plasmid. Transformed colonies were selected after growing on Luria-agar containing 50 μg/mL ampicillin. A single transformed colony was grown in presence of ampicillin first in Luria broth and then in MHBII and stored as 20% glycerol stock at −80° C. […]
NPN Assay. The outer membrane perturbation of bacteria was evaluated by incubating E. coli ML35p with peptides in presence of NPN. […] Then, 90 μL of the bacterial suspension containing 20 μM NPN was added with 10 μL of 250 μM peptide (10×) solution in water and scanned for fluorescence intensity (excitation=350 nm, emission=420 nm). The % Perturbation was calculated by considering PMB to be causing 100% Perturbation and water (without peptide) as 0% Perturbation. […]
When peptides partition from the bulk aqueous environment to the cellular membranes, they may cause small defects in the membrane organization, a signature of adsorption of the peptides into the membranes. Such small defects are called membrane perturbations and can be evaluated by utilizing molecular probes. […]

[2] = Cytotoxicity (Alamar blue); assay type: cell-based; details: human, primary lung epithelium cells; ~16 hours (overnight), reduced serum conditions; read-out: concentration decreasing resazurin reduction by 50% (LD50)
Procedure: FIGS. 11A-11B are graphs showing cytotoxicity against primary lung epithelium cells in serum-free condition. Cells were seeded in complete growth medium (Minimal essential medium supplemented with 10% fetal bovine serum) at near-confluence into a 96-well plate and allowed to settle for 24-hours. Media was then replaced to OptiMEM I reduced serum medium containing peptide or vehicle alone (DBPS) and cells were incubated overnight (16 hours). A resazurin based dye (Alamar blue) was added directly to media and conversion of resazurin to resorufin was evaluated following two hours. % Survival represents the proportion of viable cells in peptide treated cells relative to cells treated with vehicle alone. […] Each peptide was tested in triplicate.
FIG. 12 is a graph showing comparison of toxicities against Lung Primary Epithelial cells and Lung Cancerous Epithelial Cells, derived from H358 cell-line. […] Each peptide was tested in triplicate.
Cytotoxicity. Cells were seeded in complete growth medium (Minimal Essential Medium, MEMα, supplemented with 10% Fetal Bovine Serum) into a culture-treated 96-well plate at a density of 25000 cells per well. After 24 hours, culture media was aspirated and replaced with media containing the selected peptide. […] A ratio of reduction in treated versus untreated cells was calculated in order to determine overall cell viability. […]

CC[C@H](C)[C@H](NC(=O)[C@@H](NC(=O)[C@H](CCCCN)NC(=O)[C@@H]1CCCN1C(=O)[C@H](CCCCN)NC(=O)[C@H](CCCCN)NC(=O)[C@H](Cc1ccccc1)NC(=O)[C@H](Cc1ccccc1)NC(=O)[C@H](CCCCN)NC(=O)[C@H](CCCCN)NC(=O)[C@H](C)NC(=O)[C@H](CCCNC(=N)N)NC(=O)[C@H](CCCCN)NC(=O)[C@H](CCCCN)NC(=O)[C@@H](NC(=O)[C@H](CO)NC(=O)[C@H](CC(N)=O)NC(=O)[C@H](CCCCN)NC(=O)[C@H](CC(C)C)NC(=O)[C@H](CCCCN)NC(=O)[C@H](CCCCN)NC(=O)[C@H](Cc1ccccc1)NC(=O)[C@H](Cc1ccccc1)NC(=O)[C@H](CCCCN)NC(=O)[C@H](CCCCN)NC(=O)[C@H](Cc1ccccc1)NC(=O)[C@H](CCCNC(=N)N)NC(=O)[C@@H](N)CCCCN)C(C)C)C(C)C)C(=O)NCC(=O)N[C@H](C(=O)N[C@H](C(=O)N[C@@H](Cc1ccccc1)C(=O)N1CCC[C@H]1C(=O)N[C@@H](Cc1ccccc1)C(=O)O)[C@@H](C)O)C(C)C [NA-CATH, reference compound]
membrane perturbation with respect to PMB ([1]; 10 mM phosphate buffer): higher degree of membrane perturbations than PMB | membrane perturbation with respect to PMB ([1]; PBS): perturbed outer membrane greater than PMB | CC50 at 16 h [2]: ~25 µM
